Test results: ChEMBL document CHEMBL5727089, “7-beta-alkyl analogs of orvinols” (2018)

The chains behind the UniProt entries cited, without tags or fusion partners.
UniProt P35372, whole entry: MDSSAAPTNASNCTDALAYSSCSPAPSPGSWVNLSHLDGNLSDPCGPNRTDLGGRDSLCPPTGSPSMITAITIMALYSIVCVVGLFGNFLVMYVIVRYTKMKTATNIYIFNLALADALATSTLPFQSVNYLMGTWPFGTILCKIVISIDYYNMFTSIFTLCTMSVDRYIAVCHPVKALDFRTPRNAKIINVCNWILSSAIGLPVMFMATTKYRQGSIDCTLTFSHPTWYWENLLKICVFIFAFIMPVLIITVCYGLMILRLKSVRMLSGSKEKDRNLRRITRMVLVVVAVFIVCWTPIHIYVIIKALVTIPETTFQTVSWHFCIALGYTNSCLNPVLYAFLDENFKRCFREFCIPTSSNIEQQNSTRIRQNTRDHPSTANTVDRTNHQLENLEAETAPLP
UniProt P41145, whole entry: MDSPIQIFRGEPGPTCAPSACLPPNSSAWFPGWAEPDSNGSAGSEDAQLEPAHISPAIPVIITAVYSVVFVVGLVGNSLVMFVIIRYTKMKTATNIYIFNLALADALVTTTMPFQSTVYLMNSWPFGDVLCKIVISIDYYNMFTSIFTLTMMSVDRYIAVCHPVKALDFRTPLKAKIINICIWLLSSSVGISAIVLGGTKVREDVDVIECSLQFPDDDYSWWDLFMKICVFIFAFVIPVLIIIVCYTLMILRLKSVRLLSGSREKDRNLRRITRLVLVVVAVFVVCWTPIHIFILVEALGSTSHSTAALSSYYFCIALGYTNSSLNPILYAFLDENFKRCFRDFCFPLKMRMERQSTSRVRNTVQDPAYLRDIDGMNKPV

What was measured:
Mu-type opioid receptor = Mu-type opioid receptor (Homo sapiens, UniProt P35372); experiment: Receptor Binding Assay : μ-Opioid:Radioligand dose-displacement binding assays for μ-opioid receptors used 0.3 nM [3H]-diprenorphine (Perkin Elmer, Shelton, Conn.), with […] membrane protein/well in a final volume of 500 μl binding buffer (10 mM MgCl2, 1 mM EDTA, 5% DMSO, 50 mM HEPES, pH 7.4). Reactions were carried out in the absence or presence of increasing concentrations of unlabeled naloxone
[1] = target: Kappa-type opioid receptor (Homo sapiens, UniProt P41145); experiment: Receptor Binding Assay : κ-Opioid: Receptor Binding Assay Procedures: Membranes from HEK-293, CHO or U-2 OS cells expressing the recombinant human kappa opioid receptor (κ) were prepared by lysing cells in ice cold hypotonic buffer (2.5 mM MgCl2, 50 mM HEPES, pH 7.4) (10 mL/10 cm dish) followed by homogenization with a tissue grinder/Teflon pestle. Membranes from a cell line naturally expressing k

Row | SMILES | EC50 (Mu-type opioid receptor) | EC50 [1]
1 | COC12CC[C@@]3(C[C@]1(C)CNCc1ccccc1)[C@H]1Cc4ccc(O)c5c4[C@@]3(CCN1CC1CC1)[C@H]2O5 | 3390 pM | 
2 | COC12CC[C@@]3(C[C@]1(C)COCc1ccoc1)[C@H]1Cc4ccc(O)c5c4[C@@]3(CCN1CC1CC1)[C@H]2O5 |  | 37 pM
3 | COC12CC[C@@]3(C[C@]1(C)COCc1ccccc1)[C@H]1Cc4ccc(O)c5c4[C@@]3(CCN1CC1CC1)[C@H]2O5 | 550 pM | 
